A word on the IC50: it is the concentration at which inhibition is half-maximal. Lower therefore signals greater potency. The Kd is the constant that tells how readily two partners part at equilibrium.

The chains behind the UniProt entries cited, without tags or fusion partners. Residues count along the entry.
UniProt P02786, whole entry: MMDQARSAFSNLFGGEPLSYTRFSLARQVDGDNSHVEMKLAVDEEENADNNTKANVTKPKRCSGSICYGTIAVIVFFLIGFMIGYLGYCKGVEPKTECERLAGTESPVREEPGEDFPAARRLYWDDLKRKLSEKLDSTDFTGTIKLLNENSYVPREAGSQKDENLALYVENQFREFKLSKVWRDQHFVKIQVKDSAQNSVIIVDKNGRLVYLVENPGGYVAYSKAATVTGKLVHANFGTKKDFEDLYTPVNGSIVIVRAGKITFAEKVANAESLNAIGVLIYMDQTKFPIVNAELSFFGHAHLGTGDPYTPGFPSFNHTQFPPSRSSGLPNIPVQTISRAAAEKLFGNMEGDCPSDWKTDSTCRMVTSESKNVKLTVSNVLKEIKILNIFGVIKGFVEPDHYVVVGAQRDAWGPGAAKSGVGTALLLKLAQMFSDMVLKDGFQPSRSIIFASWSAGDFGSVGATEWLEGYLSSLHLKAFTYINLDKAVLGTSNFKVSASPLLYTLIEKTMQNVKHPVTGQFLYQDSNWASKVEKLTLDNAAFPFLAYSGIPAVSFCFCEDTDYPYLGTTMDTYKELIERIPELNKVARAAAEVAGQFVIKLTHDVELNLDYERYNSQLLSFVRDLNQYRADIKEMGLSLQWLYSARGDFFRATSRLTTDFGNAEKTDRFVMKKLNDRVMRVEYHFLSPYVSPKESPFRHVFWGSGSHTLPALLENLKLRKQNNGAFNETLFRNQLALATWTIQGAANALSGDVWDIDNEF
UniProt P02786, 89-760: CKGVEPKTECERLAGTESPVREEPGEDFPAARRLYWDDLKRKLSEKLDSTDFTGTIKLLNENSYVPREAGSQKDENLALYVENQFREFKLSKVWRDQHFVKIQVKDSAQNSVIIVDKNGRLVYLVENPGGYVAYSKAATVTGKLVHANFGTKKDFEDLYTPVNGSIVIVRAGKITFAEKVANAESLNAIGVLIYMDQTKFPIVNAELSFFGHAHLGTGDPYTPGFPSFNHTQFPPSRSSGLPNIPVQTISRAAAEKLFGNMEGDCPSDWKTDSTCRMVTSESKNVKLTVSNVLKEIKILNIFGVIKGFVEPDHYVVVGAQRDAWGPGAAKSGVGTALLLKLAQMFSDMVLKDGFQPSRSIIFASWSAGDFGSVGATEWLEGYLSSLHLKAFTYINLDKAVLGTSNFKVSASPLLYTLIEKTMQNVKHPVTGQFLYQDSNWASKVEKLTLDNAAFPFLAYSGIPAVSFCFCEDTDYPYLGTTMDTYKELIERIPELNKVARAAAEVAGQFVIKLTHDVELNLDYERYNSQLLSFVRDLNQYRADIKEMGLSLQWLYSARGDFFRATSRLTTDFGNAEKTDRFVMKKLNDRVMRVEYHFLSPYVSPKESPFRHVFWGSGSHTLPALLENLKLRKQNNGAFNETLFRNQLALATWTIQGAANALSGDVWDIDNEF

This passage reports IC50 and Kd results from patent US20240391959A1, “BICYCLIC PEPTIDE LIGANDS […] FOR TRANSFERRIN RECEPTOR 1 (TfR1)” (BicycleTx Limited, priority 2020, published 2024).

Assay [1] concerns the target T1, human TfR1 (Homo sapiens, UniProt P02786). Briefly: TfR1 inhibition assay (Alpha assay, transferrin inhibition). The format is binding. The procedure: TfR1 inhibitory activity of peptides of the invention (IC50) was determined using Alpha assay, in accordance with the following method. Proteins, peptides and Alpha reagents were prepared to 5× concentration and 5 μl of each reagent added to 25 μl total volume in white 384-well Optiplate to make 1× final concentration. Fluorescently labelled human transferrin (Invitrogen, T2871) was diluted to 2.5 nM in 25 mM HEPES with 100 mM NaCl, 4 mM CaCl2, 0.5% BSA and 0.05% P20, pH 7.4. Human or cynomolgus TfR1 protein was diluted to 50 nM and unlabelled human transferrin (R&D Systems, 2914-HT) was diluted to 500 nM in the same assay buffer. Non-labelled peptides from DMSO stock were diluted 20-fold in the same assay buffer, followed by 1 in 3 serial dilution in assay buffer containing 5% DMSO to give 11-different concentrations. 5 μl fluorescently labelled transferrin, 5 μl human or cynomolgus TfR1, 5 μl non-labelled peptide or unlabelled human transferrin (R&D Systems, 2914-HT) were added to white 384-well Optiplate and incubated for 30 min. Anti-FITC Acceptor (PerkinElmer, AL127) was diluted 50-fold in assay buffer, 5 μl added to assay plate and incubated for 30 min. […] Luminescence measurements were conducted on a BMG PHERAstar FS or FSX equipped with an AlphaScreen 520-620 module at 25° C. following excitation at 680 nm. […]

For assay [2], the target named is T1, human TfR1. Briefly: biochemical. The format is binding. On the set-up: His6-tagged TfR1 (a.a. 89-760) (ACRO Biosystems, CD1-H5243 and TFR-C524a); His6; purchased R&D Systems or Acro Biosystems 2474-TR or CD1-H5243.

For the compound `CC(C)C[C@@H]1NC(=O)[C@@H](NC(=O)[C@H](C)N)CSCCC(=O)N2CN3CN(C2)C(=O)CCSC[C@@H](C(=O)N[C@@H](C)C(N)=O)NC(=O)[C@H](CO)NC(=O)[C@H](Cc2ccc(O)cc2)NC(=O)[C@H](Cc2c[nH]c4ccccc24)NC(=O)[C@H](Cc2ccc(O)cc2)NC(=O)[C@H](C(C)C)NC(=O)CNC(=O)[C@H](CC(=O)O)NC(=O)[C@H](Cc2ccc(O)cc2)NC(=O)[C@H](CSCCC3=O)NC(=O)[C@H](C)NC(=O)[C@H](CCC(=O)O)NC1=O` [BCY12454, A-(SEQ ID NO: 3)-A], the IC50 at human TfR1 [1] is 0.893 µM. Same read-out and setting: under `CC(C)C[C@@H]1NC(=O)[C@H](C)NC(=O)[C@@H](NC(=O)[C@H](C)N)CSCCC(=O)N2CN3CN(C2)C(=O)CCSC[C@H](NC1=O)C(=O)N[C@@H](CC(N)=O)C(=O)N[C@@H](CC(=O)O)C(=O)N[C@@H](Cc1c[nH]c2ccccc12)C(=O)N[C@@H]([C@@H](C)O)C(=O)N[C@@H](CC(C)C)C(=O)N1CCC[C@H]1C(=O)N[C@@H](Cc1c[nH]c2ccccc12)C(=O)N[C@@H](Cc1c[nH]cn1)C(=O)N[C@@H](Cc1c[nH]cn1)C(=O)N[C@H](C(=O)N[C@@H](C)C(N)=O)CSCCC3=O` [BCY12455, A-(SEQ ID NO: 1)-A] stands 0.673 µM. `CC(=O)N[C@H]1CSCCC(=O)N2CN3CN(C2)C(=O)CCSC[C@H](NC(=O)CNC(=O)[C@H](CC(C)C)NC(=O)[C@H](Cc2ccc(O)cc2)NC(=O)[C@H](C)NC(=O)[C@H](CC(=O)O)NC(=O)[C@@H]2C[C@@H](O)CN2C(=O)[C@@H]2CCCN2C1=O)C(=O)N[C@@H](C(C)(C)C)C(=O)N[C@@H](CO)C(=O)N[C@@H](Cc1ccc(O)cc1)C(=O)N[C@H](C(N)=O)CSCCC3=O` [BCY20546, Ac-(SEQ ID NO: 13)] displayed a Kd on human TfR1 [2] of 1.66 µM.
